Here are results for one compound from patent US20070264674A1, “Cytochrome P450 Induction Assay” (priority 2004, published 2007).

The test system of the series is CAR or PXR. As to the kind of experiment: Fresh human hepatocytes transfected with clone 102-SEAP only. Format: cell-based. The settings on record: 10 μM Rifampicin, 5 μM Clotrimazole, 10 μM TPP, 250 μM CITCO, 50 μM Artemisinin, about 48 h. An excerpt:
In this example, clone 102-SEAP DNA was transfected into fresh human hepatocytes using the method of Example 6. […].

`CO[C@H]1/C=C/O[C@@]2(C)Oc3c(C)c(O)c4c(O)c(c(/C=N/N5CCN(C)CC5)c(O)c4c3C2=O)NC(=O)/C(C)=C\C=C\[C@H](C)[C@H](O)[C@@H](C)[C@@H](O)[C@@H](C)[C@H](OC(C)=O)[C@@H]1C` [Rifampicin]: the “induction of expression of the reporter gene (SEAP)” value is listed as “inducers of expression of the reporter gene”.
